Measured values taken from patent US20250320214A1, “ORGANIC COMPOUNDS” (INTRA-CELLULAR THERAPIES, INC., priority 2022, published 2025).
Like-named read-outs stand apart in the source and are kept apart here.

Experiments:
5-HT2A = 5-HT2A (Homo sapiens, UniProt P28223); experiment: Receptor binding, 5-HT2A; conditions: for inhibition at 0.1 µM: read-out: 5-HT2A maximum inhibition; for 5-HT2A maximum inhibition: 0.1 µM
D2 = D2 (Homo sapiens, UniProt P14416); experiment: Receptor binding, D2
SERT = SERT (Homo sapiens, UniProt P31645); experiment: Receptor binding, SERT; conditions: for inhibition at 0.1 µM: at 100 nM
D1 = D1 (Homo sapiens, UniProt P21728); experiment: Receptor binding, D1; conditions: for inhibition at 0.1 µM: read-out: D1 maximum inhibition
Mu opioid receptor = Mu opioid receptor (Homo sapiens, UniProt P35372); experiment: Receptor binding, Mu opioid receptor; conditions: for inhibition at 0.1 µM: at 100 nM, read-out: Mu maximum inhibition
[1] = at 100 nM, read-out: D2 maximum inhibition
[2] = read-out: SERT maximum inhibition
[3] = at 200 nM, read-out: SERT maximum inhibition
[4] = read-out: D2 maximum inhibition
[5] = (footnote c), read-out: SERT maximum inhibition

In the case of CCCCN1CC[C@H]2[C@@H](C1)c1cccc3c1N2CC(=O)N3 [Ex. 1, (6bR,10aS)-8-butyl-6b,7,8,9,10,10a-hexahydro-1H-pyrido[3′,4′:4,5]pyrrolo[1,2,3-de]quinoxalin-2(3H)-one], the inhibition at 0.1 µM (5-HT2A) is reported as less than 0%, the inhibition at 0.1 µM (D2; [1]) is reported as 15% and the inhibition at 0.2 µM (SERT; [2]) is reported as less than 0%.
For O=C1CN2c3c(cccc3[C@@H]3CN(CCCO)CC[C@@H]32)N1 [Ex. 2, (6bR,10aS)-8-(3-hydroxypropyl)-6b,7,8,9,10,10a-hexahydro-1H-pyrido[3′,4′:4,5]pyrrolo[1,2,3-de]quinoxalin-2(3H)-one], the inhibition at 0.1 µM (5-HT2A) was 8% and the inhibition at 0.2 µM (SERT; [3]) was less than 0%.
O=C1CN2c3c(cccc3[C@@H]3CN(CCCOc4ccccc4)CC[C@@H]32)N1 [Ex. 3, (6bR,10aS)-8-(3-phenoxypropyl)-6b,7,8,9,10,10a-hexahydro-1H-pyrido[3′,4′:4,5]-pyrrolo[1,2,3-de]quinoxalin-2(3H)-one] gave a Ki (5-HT2A) of 2.84 nM, an inhibition at 0.1 µM (D2; [4]) of 34% and an inhibition at 50 µM (SERT; at 50 μM (footnote a), read-out: SERT maximum inhibition) of 8%. It also gave an inhibition at 0.1 µM (D1) of 24%.
O=C1CN2c3c(cccc3[C@@H]3CN(CCCC(=O)c4ccc(Cl)s4)CC[C@@H]32)N1 [Ex. 4, (6bR,10aS)-8-(4-(5-chlorothiophen-2-yl)-4-oxobutyl)-6b,7,8,9,10,10a-hexahydro-1H-pyrido[3′,4′:4,5]-pyrrolo[1,2,3-de]quinoxalin-2(3H)-one] showed a Ki (Mu opioid receptor) of 8.15 nM, a Ki (5-HT2A) of 18.3 nM and an inhibition at 0.1 µM (D2; [1]) of 41%. For the same molecule, the Ki (SERT) was 66 nM and the inhibition at 0.1 µM (D1; at 100 nM) was 34%.
For O=C1CN2c3c(cccc3[C@@H]3CN(CCCOc4ccc(O)cc4)CC[C@@H]32)N1 [Ex. 6, (6bR,10aS)-8-(3-(4-hydroxyphenoxy)propyl)-6b,7,8,9,10,10a-hexahydro-1H-pyrido[3′,4′:4,5]pyrrolo[1,2,3-de]quinoxalin-2(3H)-one], the inhibition at 0.1 µM (5-HT2A) was 77%, the inhibition at 0.1 µM (D2; [4]) was 41% and the inhibition at 0.2 µM (SERT; [3]) was 11%. For the same molecule, the inhibition at 0.1 µM (D1; at 100 nM) was 0.86%.
O=C1CN2c3c(cccc3[C@@H]3CN(CCCOc4ccc(OCc5ccccc5)cc4)CC[C@@H]32)N1 [Ex. 7, (6bR,10aS)-8-(3-(4-(benzyloxy)phenoxy)propyl)-6b,7,8,9,10,10a-hexahydro-1H-pyrido[3′,4′:4,5]-pyrrolo[1,2,3-de]quinoxalin-2(3H)-one] gave an inhibition at 0.1 µM (5-HT2A) of 76%, an inhibition at 0.1 µM (D2; [4]) of 23% and an inhibition at 0.2 µM (SERT; [3]) of 68%. The inhibition at 0.1 µM (D1) was 4.6%.
NC(=O)c1cc(F)ccc1OCCCN1CC[C@H]2[C@@H](C1)c1cccc3c1N2CC(=O)N3 [Ex. 8, 5-fluoro-2-(3-((6bR,10aS)-2-oxo-2,3,6b,9,10,10a-hexahydro-1H-pyrido[3′,4′:4,5]pyrrolo[1,2,3-de]quinoxalin-8(7H)-yl)propoxy)benzamide] showed an inhibition at 0.1 µM (5-HT2A) of 14%, an inhibition at 100 µM (D2; at 100 μM (footnote b), read-out: D2 maximum inhibition) of less than 0% and an inhibition at 0.2 µM (SERT; [3]) of 9.6%. For the same molecule, the inhibition at 0.1 µM (D1; at 100 nM) was 0.78%.
O=C1CN2c3c(cccc3[C@@H]3CN(CCCOc4ccc(F)c(F)c4)CC[C@@H]32)N1 [Ex. 9, (6bR,10aS)-8-(3-(3,4-difluorophenoxy)propyl)-6b,7,8,9,10,10a-hexahydro-1H-pyrido[3′,4′:4,5]pyrrolo-[1,2,3-de]quinoxalin-2(3H)-one] was tested, and the Ki (Mu opioid receptor) was 1.83 nM, the Ki (5-HT2A) was 16.1 nM and the inhibition at 0.1 µM (D2; [4]) was 7%. The inhibition at 0.2 µM (SERT; [5]) was 15% and the inhibition at 0.1 µM (D1) was 15%.
Cc1cc(F)cc(C)c1OCCCN1CC[C@H]2[C@@H](C1)c1cccc3c1N2CC(=O)N3 [Ex. 11, (6bR,10aS)-8-(3-(4-fluoro-2,6-dimethylphenoxy)propyl)-6b,7,8,9,10,10a-hexahydro-1H-pyrido[3′,4′:4,5]-pyrrolo[1,2,3-de]quinoxalin-2(3H)-one] gave an inhibition at 0.1 µM (5-HT2A) of 40%, an inhibition at 0.1 µM (D2; [1]) of less than 0% and an inhibition at 0.2 µM (SERT; [5]) of 34%. For the same molecule, the inhibition at 0.1 µM (D1; at 100 nM) was less than 0%.
O=C1Nc2cccc3c2N([C@H]2CCN(CCCOc4ccc(F)cc4)C[C@@H]32)C1(F)F [Ex. 13, (6bR,10aS)-1,1-difluoro-8-(3-(4-fluorophenoxy)propyl)-6b,7,8,9,10,10a-hexahydro-1H-pyrido[3′,4′:4,5]pyrrolo[1,2,3-de]quinoxalin-2(3H)-one] gave an inhibition at 0.1 µM (Mu opioid receptor) of less than 0%, an inhibition at 0.1 µM (5-HT2A; at 100 nM) of 21% and an inhibition at 0.1 µM (D2; [1]) of 7%. For the same molecule, the inhibition at 0.2 µM (SERT; [3]) was 6% and the inhibition at 0.1 µM (D1; at 100 nM) was 24%.
Work on CC(=O)Nc1cccc2c1N[C@H]1CCN(CCCOc3ccc(F)cc3)C[C@@H]21 [Ex. 14, N-((4aS,9bR)-2-(3-(4-fluorophenoxy)propyl)-2,3,4,4a,5,9b-hexahydro-1H-pyrido[4,3-b]indol-6-yl)acetamide] yielded an inhibition at 0.1 µM (Mu opioid receptor) of 9%, an inhibition at 0.1 µM (5-HT2A; at 100 nM) of 67% and an inhibition at 0.1 µM (D2; [1]) of 11%. For the same molecule, the inhibition at 0.2 µM (SERT; [3]) was 4% and the inhibition at 0.1 µM (D1; at 100 nM) was 25%.
CC(=O)Nc1cccc2c1N[C@H]1CCN(CCCC(=O)c3ccc(F)cc3)C[C@@H]21 [Ex. 15, N-((4aS,9bR)-2-(4-(4-fluorophenyl)-4-oxobutyl)-2,3,4,4a,5,9b-hexahydro-1H-pyrido[4,3-b]indol-6-yl)acetamide] gave an inhibition at 0.1 µM (Mu opioid receptor) of 11%, an inhibition at 0.1 µM (5-HT2A; at 100 nM) of 80% and an inhibition at 0.1 µM (D2; [1]) of 49%. For the same molecule, the inhibition at 0.2 µM (SERT; [3]) was less than 0% and the inhibition at 0.1 µM (D1; at 100 nM) was 45%.
In the case of CC(=O)Nc1cccc2c1N[C@H]1CCN(CCCC(O)c3ccc(F)cc3)C[C@@H]21 (stereo partly drawn) [Ex. 16, N-((4aS,9bR)-2-(4-(4-fluorophenyl)-4-hydroxybutyl)-2,3,4,4a,5,9b-hexahydro-1H-pyrido[4,3-b]indol-6-yl)acetamide], the inhibition at 0.1 µM (Mu opioid receptor) is reported as less than 0%, the inhibition at 0.1 µM (5-HT2A; at 100 nM) is reported as less than 0% and the inhibition at 0.1 µM (D2; [1]) is reported as less than 0%. It also gave an inhibition at 0.2 µM (SERT; [3]) of less than 0% and an inhibition at 0.1 µM (D1; at 100 nM) of less than 0%.
Cc1cc(F)ccc1OCCCN1CC[C@H]2[C@@H](C1)c1cccc3c1N2CC(=O)N3 [Ex. 18] gave a Ki (Mu opioid receptor) of 2.9 nM, a Ki (5-HT2A) of 0.4 nM and an inhibition at 0.1 µM (D2; [1]) of 69%. The inhibition at 0.2 µM (SERT; [3]) was 32% and the inhibition at 0.1 µM (D1; at 100 nM) was 40%.
O=C1CN2c3c(cccc3[C@@H]3CN(CCCOc4ccc(F)cc4Cl)CC[C@@H]32)N1 [Ex. 19] showed a Ki (Mu opioid receptor) of 3 nM, a Ki (5-HT2A) of 0.6 nM and an inhibition at 0.1 µM (D2; [1]) of 80%. It also gave an inhibition at 0.2 µM (SERT; [3]) of 23% and an inhibition at 0.1 µM (D1; at 100 nM) of 33%.
With CCc1cc(F)ccc1OCCCN1CC[C@H]2[C@@H](C1)c1cccc3c1N2CC(=O)N3 [Ex. 20] the Ki (Mu opioid receptor) was 5.4 nM, the Ki (5-HT2A) was 0.3 nM and the inhibition at 0.1 µM (D2; [1]) was 69%. For the same molecule, the inhibition at 0.2 µM (SERT; [3]) was 26% and the inhibition at 0.1 µM (D1; at 100 nM) was 66%.
Cc1cc(OCCCN2CC[C@H]3[C@@H](C2)c2cccc4c2N3CC(=O)N4)ccc1F [Ex. 21] gave a Ki (Mu opioid receptor) of 69 nM, a 5-HT2A maximum inhibition (5-HT2A) of 77% and an inhibition at 0.1 µM (D2; [1]) of 0%. It also gave an inhibition at 0.1 µM (SERT; [2]) of 14% and an inhibition at 0.1 µM (D1; at 100 nM) of less than 1%.
O=C1CN2c3c(cccc3[C@@H]3CN(CCCOc4ccc(F)c(Cl)c4)CC[C@@H]32)N1 [Ex. 22] was tested, and the Ki (Mu opioid receptor) was 74 nM, the 5-HT2A maximum inhibition (5-HT2A) was 65% and the inhibition at 0.1 µM (D2; [1]) was 0%. It also gave an inhibition at 0.1 µM (SERT; [2]) of 6% and an inhibition at 0.1 µM (D1; at 100 nM) of 0%.
With N#Cc1cc(OCCCN2CC[C@H]3[C@@H](C2)c2cccc4c2N3CC(=O)N4)ccc1F [Ex. 23] the Ki (Mu opioid receptor) was 65 nM, the 5-HT2A maximum inhibition (5-HT2A) was 35% and the inhibition at 0.1 µM (D2; [1]) was 0%. It also gave an inhibition at 0.1 µM (SERT; [2]) of 13% and an inhibition at 0.1 µM (D1; at 100 nM) of 0%.
In the case of N#Cc1cc(F)ccc1OCCCN1CC[C@H]2[C@@H](C1)c1cccc3c1N2CC(=O)N3 [Ex. 25], the Ki (Mu opioid receptor) is reported as 8.4 nM, the Ki (5-HT2A) is reported as 3.8 nM and the Ki (D2) is reported as 43 nM. For the same molecule, the Ki (SERT) was 35 nM and the Ki (D1) was 74 nM.
Work on CN1C(=O)CN2c3c(cccc31)[C@@H]1CN(CCCOc3ccc(F)cc3C#N)CC[C@@H]12 [Ex. 26] yielded a Mu maximum inhibition (Mu opioid receptor; concentration not printed in this table (row head: Mu (Ki, nM))) of 5%, an inhibition at 0.1 µM (5-HT2A; at 100 nM) of 91% and an inhibition at 0.1 µM (D2; [1]) of 14%. It also gave an inhibition at 0.2 µM (SERT; [3]) of 93% and an inhibition at 0.1 µM (D1; at 100 nM) of 93%.
O=C1CN2c3c(cccc3[C@@H]3CN(CCCOc4ccc(F)cc4)CC[C@@H]32)N1 [Fm. A, (6bR,10aS)-8-(3-(4-fluorophenoxy)propyl)-6b,7,8,9,10,10a-hexahydro-1H-pyrido[3′,4′:4,5]pyrrolo[1,2,3-de]quinoxalin-2(3H)-one, reference compound] showed an inhibition at 0.1 µM (D1) of 44%.
O=C1CN2c3c(cccc3[C@@H]3CN(CCCS(=O)(=O)c4ccc(F)cc4)CC[C@@H]32)N1 [compound 12, (6bR,10aS)-8-(3-((4-fluorophenyl)sulfonyl)propyl)-6b,7,8,9,10,10a-hexahydro-1H-pyrido[3′,4′:4,5]pyrrolo-[1,2,3-de]quinoxalin-2(3H)-one] gave an inhibition at 0.1 µM (Mu opioid receptor) of less than 0%, an inhibition at 0.1 µM (5-HT2A) of 33% and an inhibition at 0.2 µM (SERT; [3]) of less than 0%.
